{"sequences": {"note": "The chains behind the UniProt entries cited, without tags or fusion partners. Where a name states a change or a piece, a line headed by the entry shows the natural chain unless it says otherwise.", "UniProt P35372": "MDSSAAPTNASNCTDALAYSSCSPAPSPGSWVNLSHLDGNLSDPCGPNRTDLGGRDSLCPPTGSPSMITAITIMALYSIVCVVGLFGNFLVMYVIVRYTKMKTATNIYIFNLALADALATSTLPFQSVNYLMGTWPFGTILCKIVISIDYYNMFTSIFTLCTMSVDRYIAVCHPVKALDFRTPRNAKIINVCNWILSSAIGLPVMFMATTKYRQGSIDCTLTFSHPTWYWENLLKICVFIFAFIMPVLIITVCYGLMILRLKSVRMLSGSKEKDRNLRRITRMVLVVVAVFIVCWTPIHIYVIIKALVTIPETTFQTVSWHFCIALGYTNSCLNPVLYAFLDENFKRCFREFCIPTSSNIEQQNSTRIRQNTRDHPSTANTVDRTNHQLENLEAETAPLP"}, "source": "patent US6713488B2", "about": "(priority 2000, dated 2004)", "key": {"human MOR [1]": {"biological_target": "T1, human MOR (Homo sapiens, UniProt P35372)", "assay": "forskolin stimulated cAMP levels in intact HEK-MOR cells", "format": "cell-based", "settings": "1 μM drug, 100 μM forskolin"}, "human MOR [2]": {"biological_target": "T1, human MOR", "settings": "for effect on basal 35S-GTPγS binding activity: 1 μM drug, 1 mM MgCl2, no agonist; for EC50: read-out: EC50 (35S-GTPγS binding dose-response)"}}, "note": "Read-outs that look alike come from different tables or passages of the source.", "data": [{"substance": "β-chlornaltrexamine", "values": [{"measurement": "effect on forskolin stimulated cAMP levels", "setting": "human MOR [1]; morphine-pretreated HEK-MOR cells", "value": "increased"}, {"measurement": "effect on forskolin stimulated cAMP levels", "setting": "human MOR [1]; untreated HEK-MOR cells", "value": "increased"}, {"measurement": "effect on basal 35S-GTPγS binding activity", "setting": "human MOR [2]; morphine-pretreated HEK-MOR membranes", "value": "decreased"}, {"measurement": "EC50", "setting": "human MOR [2]; morphine-pretreated HEK-MOR cell membranes", "value": 59, "unit": "nM"}, {"measurement": "EC50", "setting": "human MOR [2]; naive HEK-MOR cell membranes", "value": 29, "unit": "nM"}, {"measurement": "effect on basal 35S-GTPγS binding activity", "setting": "human MOR [2]; untreated HEK-MOR membranes", "value": "decreased"}]}]}
